# According to patent US20090253634A1, “Methods and Compositions for the Treatment of Gastrointestinal Disorders” (MICROBIA, INC., priority 2005, published 2009):
# Tested on: carboxypeptidase A
# Assay: in vitro proteolytic stability: carboxypeptidase A
substance,measurement,setting,value
"N-CBZ-Glycine-Glycine-Leucine [Z-Gly-Gly-Leu, reference compound]",average calculated concentration of Z-Gly-Gly-Leu,T0 control and T0 samples,7.1 (+/0.30) μg/mL
same,calculated concentration of the Z-Gly-Gly-Leu products,T3 h and T24 h samples,2.2 (+/−0.10) μg/mL
same,precursor mass of Z-Gly-Gly-Leu,T3 h and T24 h samples,No precursor mass was detected
